Test results: patent publication US20250074890A1, “CYANOPYRIDINE AND CYANOPYRIMIDINE BCL6 DEGRADERS” (DANA-FARBER CANCER INSTITUTE, INC., priority 2021, published 2025)

Target: BCL6 (Homo sapiens, UniProt P41182)
Assay: HiBiT cellular degradation assay in Su-DHL-4 cells
Conditions: read-out: HiBiT SU-DHL-4 DC50, concentration to reach 50% degradation of endogenous SmBiT-tagged BCL6, 24 hours of compound treatment
Experimental: DC50 (concentration to reach 50% degradation) values were determined from a cellular degradation assay (HiBiT, Promega™) in Su-DHL-4 cells (Table 1). Endogenous BCL6 was tagged with the 11-amino acid SmBiT through CRISPR/Cas9 gene editing and single cell clone selection. After 24 hours of compound treatment, cells were lysed and incubated with LgBiT protein to reconstitute intact nanoluciferase. Substrate was then added and relative luciferase units were measured. Degradation levels for each treatment were taken as a percentage compared to the control, 100% DMSO (Prism).

DC50: 60 nM
SMILES: CNC(=O)COc1cc2cc(Nc3ncc(C#N)c(N4CC(C)C(F)(F)C(CCN)C4)n3)ccc2n(C)c1=O (stereo not shown)
